This experiment has as its target T1, B1 receptor (Oryctolagus cuniculus, UniProt P48748).
T1 sequence (P48748 1-352): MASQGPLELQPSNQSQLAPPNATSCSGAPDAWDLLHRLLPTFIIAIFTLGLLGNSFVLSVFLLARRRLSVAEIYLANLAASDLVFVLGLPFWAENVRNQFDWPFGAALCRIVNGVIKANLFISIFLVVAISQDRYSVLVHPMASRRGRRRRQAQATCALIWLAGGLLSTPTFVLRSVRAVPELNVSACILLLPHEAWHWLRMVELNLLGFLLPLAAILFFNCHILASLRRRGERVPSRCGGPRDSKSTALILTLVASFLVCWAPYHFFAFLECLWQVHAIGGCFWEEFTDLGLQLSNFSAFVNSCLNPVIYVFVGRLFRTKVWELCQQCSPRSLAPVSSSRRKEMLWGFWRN
In words: cell-based. To be noted: Rb.A. pA2, apparent affinity as antagonist vs desArg9BK; antagonist applied 10 min before; Inactive = no detectable antagonistic effect at ≦ 10 μg/ml. From the text: Tissues were taken from New Zealand white rabbits (1.5–2.5 kg) and Dunken Hartley guinea pigs (250–350 g) of either sex, killed by stunning and exsanguination. Umbilical cords were taken from healthy women 22–40 years old after spontaneous delivery at term. The rabbit jugular vein (RbJV), the guinea pig ileum (GPI), two preparations containing B2 receptors, the rabbit aorta (RbA) (B1 receptor) and the human umbilical vein (HUV), a mixed preparation containing both B1 and B2 receptors^10, were used. Helical strips of RbJV treated with 1 μmol/L of captopril to avoid peptide degradation by the angiotensin-converting enzyme (ACE), alias kininase II were prepared according to Gaudreau et al.^11 Helical strips of RbA devoid of endothelium were prepared according to Furchgott and Bhadrakom^12. Longitudinal segments of GPI were prepared with the procedure described by Rang^13. Helical strips of HUV were prepared according to Gobeil et al.^10. […] Changes of tension produced by the various agents were measured with Grass isometric transducers (model FT 03C, Grass Instrument Co., Quincy, Mass.). […] Before testing the drugs, the tissues were allowed to equilibrate for 60–120 min during which time the tissues were repeatedly washed and the tension readjusted every 15 min. […]

Broadly, the Kb is the equilibrium dissociation constant of an antagonist, usually derived from a functional assay.

Each structure is given as a SMILES string.

Regarding `CC(C)C[C@H](NC(=O)[C@@H]1CCCN1C(=O)[C@H](CO)NC(=O)[C@H](Cc1ccccc1)NC(=O)CNC(=O)[C@@H]1CCCN1C(=O)[C@@H]1CCCN1C(=O)[C@H](CCCN=C(N)N)NC(=O)[C@@H](N)CCCCN)C(=O)O` [Compound 2, Lys(Leu^8)desArg^9BK, reference compound], the Kb was 3.55 nM.

(Values after patent publication US7041785B1, “B1-bradykinin receptor antagonists and use thereof” (Université de Sherbrooke, priority 1996, dated 2006).)
